“And” between values parts separate entries of the source, which are not always exact repeats. Identical values can stand only once. One block for each substance: values may come before it.
Columns and labels:
[1] = target: IL-1α (UniProt P01583); assay: indirect ELISA, cytokine coated at 1000 ng/ml, duplicate wells
[2] = target: IL-1β (UniProt P01584); assay: as above
[3] = target: IL-2 (UniProt P60568); assay: as above
[4] = target: rhTNFβ (human) (UniProt P01374); assay: as above
[5] = target: IL-4 (UniProt P05112); assay: as above
[6] = target: rIFN γ (UniProt P01579); assay: as above
[7] = target: IL-8 (UniProt P10145); assay: as above
[8] = target: Tumor Necrosis Factor-alpha (TNF-α) (human) (UniProt P01375); assay: indirect ELISA on coated TNF-α, screening of combinations, duplicate wells
[9] = target: Tumor Necrosis Factor-alpha (TNF-α) (human) (UniProt P01375); assay: indirect ELISA, TNF-α coated at 300 ng/ml
[10] = target: Tumor Necrosis Factor-alpha (TNF-α) (human) (UniProt P01375); assay: indirect ELISA, cytokine coated at 1000 ng/ml, duplicate wells

OD [1]: 0.059 OD and 0.065 OD
Substance: Adalimumab (antibody)

OD [2]: 0.067 OD and 0.058 OD
OD [3]: 0.053 OD and 0.059 OD
OD [4]: 0.097 OD and 0.089 OD
OD [5]: 0.05 OD
OD [6]: 0.082 OD and 0.078 OD
OD [7]: 0.063 OD and 0.057 OD
Substance: Adalimumab (antibody; other documents disagree on this pair)

Substance: L0h1 (antibody; other documents disagree on this pair)
OD [8]: 2.16 OD and 2.18 OD

Substance: L0h3 (antibody; other documents disagree on this pair)
OD [8]: 0.68 OD and 0.768 OD

OD [1]: 0.08 OD and 0.072 OD
Substance: L0h4 (antibody)

OD [2]: 0.059 OD and 0.068 OD
OD [3]: 0.074 OD and 0.069 OD
OD [4]: 0.064 OD and 0.058 OD
OD [5]: 0.055 OD and 0.049 OD
OD [6]: 0.062 OD and 0.068 OD
OD [7]: 0.067 OD and 0.06 OD
Substance: L0h4 (antibody; other documents disagree on this pair)
EC50 [9]: 0.37 nM
OD [8]: 3.34 OD and 3.13 OD
OD [10]: 3.34 OD and 3.24 OD

Substance: L0h5 (antibody; other documents disagree on this pair)
OD [8]: 1.03 OD and 0.873 OD

Reference: patent publication US20210198354A1
